Drawing on ChEMBL document CHEMBL5465560, “Selectivity Literature for EUbOPEN Chemogenomic Library” (2024), this text covers IC50 for two compounds.

Sequences of proteins named here, by UniProt entry; tags and fusion partners are left off. A change or cut given only in a name is not applied to a line headed by its entry.
UniProt P49761: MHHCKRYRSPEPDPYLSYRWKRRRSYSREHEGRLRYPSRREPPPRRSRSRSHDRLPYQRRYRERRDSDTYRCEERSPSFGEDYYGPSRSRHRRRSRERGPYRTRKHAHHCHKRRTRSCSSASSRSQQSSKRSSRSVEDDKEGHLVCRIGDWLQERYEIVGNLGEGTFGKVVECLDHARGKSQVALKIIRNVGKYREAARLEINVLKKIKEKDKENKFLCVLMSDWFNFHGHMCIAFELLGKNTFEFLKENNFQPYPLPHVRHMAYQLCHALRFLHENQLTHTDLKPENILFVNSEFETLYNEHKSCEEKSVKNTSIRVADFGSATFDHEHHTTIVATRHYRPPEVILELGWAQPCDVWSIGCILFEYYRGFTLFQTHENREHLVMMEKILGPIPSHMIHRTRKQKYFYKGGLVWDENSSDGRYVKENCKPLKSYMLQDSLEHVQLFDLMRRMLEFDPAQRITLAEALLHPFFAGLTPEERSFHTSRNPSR
UniProt P48730: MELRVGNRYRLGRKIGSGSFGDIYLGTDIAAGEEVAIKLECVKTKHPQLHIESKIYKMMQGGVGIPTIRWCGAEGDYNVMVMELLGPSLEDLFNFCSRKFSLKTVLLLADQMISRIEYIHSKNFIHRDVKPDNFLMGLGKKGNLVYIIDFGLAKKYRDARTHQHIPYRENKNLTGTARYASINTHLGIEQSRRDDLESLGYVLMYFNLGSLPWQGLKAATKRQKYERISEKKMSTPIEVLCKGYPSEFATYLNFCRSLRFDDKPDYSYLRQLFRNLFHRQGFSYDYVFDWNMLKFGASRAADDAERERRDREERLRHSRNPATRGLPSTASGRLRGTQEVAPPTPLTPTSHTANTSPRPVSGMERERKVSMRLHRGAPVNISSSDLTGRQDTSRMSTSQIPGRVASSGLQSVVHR

The target in assay [1] is Dual specificity protein kinase CLK3 (Homo sapiens, UniProt P49761). The assay can be described thus: Selectivity interaction (Eurofins binding assay) EUB0000008b CLK3.
The target of assay [2] is Casein kinase I isoform delta (Homo sapiens, UniProt P48730). Nature of the assay: Selectivity interaction (Enzymatic assay) EUB0001199aCl CSNK1D.

One may read the IC50 as the concentration that gives 50% inhibition. The compound `Cn1cc(-c2ccc3occ(-c4cccc(-c5ccncc5)c4)c3n2)cn1` registered an IC50 in assay [1] of more than 3000 nM.
As for `CN1Cc2nccc(-c3cn(C)nc3-c3ccc(F)cc3)c2C1=O`, in assay [2], the IC50 is 4 nM.
